In patent US20250000987A1, “RETINOIC ACID COMPOUND, PHARMACEUTICAL COMPOSITION THEREOF AND USE THEREOF” (Mastery Biotech CO., LTD., priority 2022, published 2025):

Molecular target: SARS-COV-2 PLpro (Severe acute respiratory syndrome coronavirus 2, UniProt P0DTD1)
Test: biochemical
Conditions: read-out: Inhibition percentage (%)

## CC1=C(/C=C/C(C)=C/C=C/C(C)=C\C(=O)O)C(C)(C)CCC1 [isotretinoin, 13-cis-retinoic acid, reference compound]
  inhibition at 50 µM: 20.9 ± 1.24%
